Biological target: T1, thrombin (THR) (Homo sapiens, UniProt P00734)
T1 construct: purchased Sigma-Aldrich
Assay: THR inhibitory activity assay (chromogenic substrate S-2238, absorbance at 405 nm)
Type: biochemical
Details: in vitro enzymatic activity assay
Procedure: A PBS buffer was prepared by dissolving 1.44 g of Na2HPO4 and 0.24 g of KH2PO4 in 800 mL of water for immediate use (pH was adjusted to 8.0 by 1.0 M NaOH). A stock solution of THR (125 U/mL) was prepared by dissolving 4.16 mg of THR in 1.0 mL of PBS. A stock solution of FXa (0.5 IU/mL) was prepared by dissolving 5.0 mg of FXa in 1.0 mL of PBS. Stock solutions of S-2238 (2 mg/mL) and S-2765 (2.5 mg/mL) were prepared in PBS. The DC extract samples (10 mg/mL) were prepared in a PBS buffer and diluted to 5.0 and 2.5 mg/mL as necessary.
THR and FXa inhibitory activity assays were performed with an iMark™ Microplate Absorbance Reader (Bio-Rad Laboratories, Inc., Hercules, CA, USA). A DC extract solution of 50 μL and a 50 μL THR solution were mixed and incubated for 10 min at 37 °C. Subsequently, a 100 μL S-2238 (2 mg/mL) solution as the chromogenic substrate was added to start the reaction in the microplate reader. The absorbance was monitored at 405 nm every 30 s for 10 min, and each group was measured three times. As a control group, the operation process was similar to the experimental group but without a DC extract. […] The inhibition rate (%) of THR and FXa was calculated using Formula (1). […] The results were expressed as the mean ± standard deviation (SD) of three experiments.

## CC1CNc2c(cccc2S(=O)(=O)N[C@@H](CCCNC(=N)N)C(=O)N2CC[C@@H](C)C[C@@H]2C(=O)O)C1 (stereo partly shown) [Argatroban, reference compound]
  IC50: 64.9 µM

— article PMC8658787, “Screening of Potential Thrombin and Factor Xa Inhibitors from the Danshen–Chuanxiong Herbal Pair through a Spectrum–Effect Relationship Analysis” (Molecules, 2021)
